Measurements from patent publication US20260384450A1, “MACROCYCLIC AMINOPYRIDINE COMPOUNDS AS EGFR INHIBITORS” (published 2026).

By UniProt entry, the sequences of proteins in these tests, tags left out. Where a name states a change or a piece, a line headed by the entry shows the natural chain unless it says otherwise. Chains listed by the source or under a name are the forms on record and can include a tag or linker. Residues count along the entry.
UniProt P00533, 25-1210 limits assumed: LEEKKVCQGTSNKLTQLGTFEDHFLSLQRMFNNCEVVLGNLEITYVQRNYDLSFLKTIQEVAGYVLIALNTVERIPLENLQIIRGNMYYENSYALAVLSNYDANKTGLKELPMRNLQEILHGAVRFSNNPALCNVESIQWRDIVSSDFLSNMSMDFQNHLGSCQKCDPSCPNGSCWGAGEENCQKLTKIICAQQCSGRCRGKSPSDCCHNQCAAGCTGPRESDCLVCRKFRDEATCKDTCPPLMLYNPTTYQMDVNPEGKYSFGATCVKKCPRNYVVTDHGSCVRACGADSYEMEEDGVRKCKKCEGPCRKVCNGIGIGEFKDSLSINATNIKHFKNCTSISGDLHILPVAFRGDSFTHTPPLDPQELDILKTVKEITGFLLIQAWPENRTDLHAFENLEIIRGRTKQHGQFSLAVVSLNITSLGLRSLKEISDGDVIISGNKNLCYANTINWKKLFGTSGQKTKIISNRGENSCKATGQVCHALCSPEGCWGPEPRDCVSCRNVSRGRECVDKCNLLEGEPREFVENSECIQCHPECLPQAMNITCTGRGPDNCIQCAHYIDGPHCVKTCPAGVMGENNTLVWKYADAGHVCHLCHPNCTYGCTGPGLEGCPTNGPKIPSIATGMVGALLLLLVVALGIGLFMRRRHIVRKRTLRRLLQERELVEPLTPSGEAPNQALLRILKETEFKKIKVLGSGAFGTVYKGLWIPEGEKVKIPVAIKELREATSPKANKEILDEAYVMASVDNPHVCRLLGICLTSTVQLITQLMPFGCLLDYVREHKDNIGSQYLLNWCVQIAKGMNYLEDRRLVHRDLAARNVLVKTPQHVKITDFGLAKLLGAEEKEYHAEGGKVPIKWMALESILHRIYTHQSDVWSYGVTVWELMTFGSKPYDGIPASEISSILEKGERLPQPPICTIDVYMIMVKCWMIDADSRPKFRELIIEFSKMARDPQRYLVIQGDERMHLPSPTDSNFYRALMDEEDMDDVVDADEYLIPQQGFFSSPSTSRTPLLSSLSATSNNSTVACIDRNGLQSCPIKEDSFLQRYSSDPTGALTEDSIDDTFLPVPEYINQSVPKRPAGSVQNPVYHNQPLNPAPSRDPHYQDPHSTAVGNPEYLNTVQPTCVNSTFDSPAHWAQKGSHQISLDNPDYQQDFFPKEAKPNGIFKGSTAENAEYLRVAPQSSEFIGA
UniProt P00533, 25-1210 C797S/L858R limits assumed: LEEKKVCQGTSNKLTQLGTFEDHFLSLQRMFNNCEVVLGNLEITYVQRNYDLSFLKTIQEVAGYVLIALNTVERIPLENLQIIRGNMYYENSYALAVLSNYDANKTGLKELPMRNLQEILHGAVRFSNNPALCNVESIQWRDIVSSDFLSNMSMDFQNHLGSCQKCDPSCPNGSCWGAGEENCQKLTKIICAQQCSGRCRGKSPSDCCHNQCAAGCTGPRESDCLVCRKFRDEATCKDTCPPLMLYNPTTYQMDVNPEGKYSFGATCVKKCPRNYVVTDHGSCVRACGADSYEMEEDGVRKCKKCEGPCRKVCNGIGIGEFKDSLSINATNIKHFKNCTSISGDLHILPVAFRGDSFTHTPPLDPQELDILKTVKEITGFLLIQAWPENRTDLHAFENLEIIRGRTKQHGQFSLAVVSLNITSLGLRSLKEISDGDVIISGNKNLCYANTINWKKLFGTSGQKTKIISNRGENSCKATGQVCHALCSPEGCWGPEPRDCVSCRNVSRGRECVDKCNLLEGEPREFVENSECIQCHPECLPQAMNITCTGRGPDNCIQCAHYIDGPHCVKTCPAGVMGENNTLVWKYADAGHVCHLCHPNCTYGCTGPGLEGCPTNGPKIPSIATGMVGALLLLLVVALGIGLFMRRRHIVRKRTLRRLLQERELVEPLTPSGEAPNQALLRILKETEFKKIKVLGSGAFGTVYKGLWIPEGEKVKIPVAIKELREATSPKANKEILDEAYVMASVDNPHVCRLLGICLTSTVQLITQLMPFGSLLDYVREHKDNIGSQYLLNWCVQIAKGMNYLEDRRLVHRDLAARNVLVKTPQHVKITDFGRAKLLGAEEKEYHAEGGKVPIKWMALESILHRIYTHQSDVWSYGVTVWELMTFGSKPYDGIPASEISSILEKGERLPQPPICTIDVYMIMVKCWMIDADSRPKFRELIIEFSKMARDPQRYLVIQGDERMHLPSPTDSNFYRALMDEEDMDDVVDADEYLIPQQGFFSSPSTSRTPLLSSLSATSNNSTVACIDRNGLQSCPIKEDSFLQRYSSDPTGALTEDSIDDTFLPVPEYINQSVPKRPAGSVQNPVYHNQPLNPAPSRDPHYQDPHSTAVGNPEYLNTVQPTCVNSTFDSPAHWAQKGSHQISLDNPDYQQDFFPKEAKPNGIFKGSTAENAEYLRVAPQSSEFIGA
UniProt P00533, 25-1210 T790M/C797S/L858R limits assumed: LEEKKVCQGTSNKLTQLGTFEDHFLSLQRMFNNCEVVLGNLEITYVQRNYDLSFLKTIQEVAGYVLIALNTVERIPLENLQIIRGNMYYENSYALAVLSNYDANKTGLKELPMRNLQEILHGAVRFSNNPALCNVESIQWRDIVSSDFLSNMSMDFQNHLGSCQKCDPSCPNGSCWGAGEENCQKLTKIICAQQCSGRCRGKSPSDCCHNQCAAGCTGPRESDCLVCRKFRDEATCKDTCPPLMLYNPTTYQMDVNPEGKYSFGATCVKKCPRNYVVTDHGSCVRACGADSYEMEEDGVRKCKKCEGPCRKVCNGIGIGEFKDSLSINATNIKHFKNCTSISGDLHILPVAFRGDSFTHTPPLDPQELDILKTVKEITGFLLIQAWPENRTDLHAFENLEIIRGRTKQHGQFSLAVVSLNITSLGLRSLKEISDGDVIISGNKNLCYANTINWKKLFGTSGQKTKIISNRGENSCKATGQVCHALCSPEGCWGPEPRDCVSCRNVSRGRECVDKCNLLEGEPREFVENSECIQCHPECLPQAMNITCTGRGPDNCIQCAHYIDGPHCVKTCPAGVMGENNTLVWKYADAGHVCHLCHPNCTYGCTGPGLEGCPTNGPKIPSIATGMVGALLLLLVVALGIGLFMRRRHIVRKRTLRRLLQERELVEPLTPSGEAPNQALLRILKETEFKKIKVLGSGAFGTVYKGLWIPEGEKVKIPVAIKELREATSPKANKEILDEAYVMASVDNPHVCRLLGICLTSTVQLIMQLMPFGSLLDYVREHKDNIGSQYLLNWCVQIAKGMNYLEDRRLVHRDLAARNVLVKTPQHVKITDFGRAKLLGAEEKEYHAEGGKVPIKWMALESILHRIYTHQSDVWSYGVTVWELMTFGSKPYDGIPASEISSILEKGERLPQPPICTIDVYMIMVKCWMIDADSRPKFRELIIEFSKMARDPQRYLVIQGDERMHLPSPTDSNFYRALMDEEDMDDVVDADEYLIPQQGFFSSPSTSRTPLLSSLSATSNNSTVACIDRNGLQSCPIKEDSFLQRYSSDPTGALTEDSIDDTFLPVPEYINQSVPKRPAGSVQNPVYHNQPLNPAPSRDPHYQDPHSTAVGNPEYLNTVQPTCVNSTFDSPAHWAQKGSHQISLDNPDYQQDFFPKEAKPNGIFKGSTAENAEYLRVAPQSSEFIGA
UniProt P00533, with tags, fused parts or gaps DEL746-750/C797S limits assumed: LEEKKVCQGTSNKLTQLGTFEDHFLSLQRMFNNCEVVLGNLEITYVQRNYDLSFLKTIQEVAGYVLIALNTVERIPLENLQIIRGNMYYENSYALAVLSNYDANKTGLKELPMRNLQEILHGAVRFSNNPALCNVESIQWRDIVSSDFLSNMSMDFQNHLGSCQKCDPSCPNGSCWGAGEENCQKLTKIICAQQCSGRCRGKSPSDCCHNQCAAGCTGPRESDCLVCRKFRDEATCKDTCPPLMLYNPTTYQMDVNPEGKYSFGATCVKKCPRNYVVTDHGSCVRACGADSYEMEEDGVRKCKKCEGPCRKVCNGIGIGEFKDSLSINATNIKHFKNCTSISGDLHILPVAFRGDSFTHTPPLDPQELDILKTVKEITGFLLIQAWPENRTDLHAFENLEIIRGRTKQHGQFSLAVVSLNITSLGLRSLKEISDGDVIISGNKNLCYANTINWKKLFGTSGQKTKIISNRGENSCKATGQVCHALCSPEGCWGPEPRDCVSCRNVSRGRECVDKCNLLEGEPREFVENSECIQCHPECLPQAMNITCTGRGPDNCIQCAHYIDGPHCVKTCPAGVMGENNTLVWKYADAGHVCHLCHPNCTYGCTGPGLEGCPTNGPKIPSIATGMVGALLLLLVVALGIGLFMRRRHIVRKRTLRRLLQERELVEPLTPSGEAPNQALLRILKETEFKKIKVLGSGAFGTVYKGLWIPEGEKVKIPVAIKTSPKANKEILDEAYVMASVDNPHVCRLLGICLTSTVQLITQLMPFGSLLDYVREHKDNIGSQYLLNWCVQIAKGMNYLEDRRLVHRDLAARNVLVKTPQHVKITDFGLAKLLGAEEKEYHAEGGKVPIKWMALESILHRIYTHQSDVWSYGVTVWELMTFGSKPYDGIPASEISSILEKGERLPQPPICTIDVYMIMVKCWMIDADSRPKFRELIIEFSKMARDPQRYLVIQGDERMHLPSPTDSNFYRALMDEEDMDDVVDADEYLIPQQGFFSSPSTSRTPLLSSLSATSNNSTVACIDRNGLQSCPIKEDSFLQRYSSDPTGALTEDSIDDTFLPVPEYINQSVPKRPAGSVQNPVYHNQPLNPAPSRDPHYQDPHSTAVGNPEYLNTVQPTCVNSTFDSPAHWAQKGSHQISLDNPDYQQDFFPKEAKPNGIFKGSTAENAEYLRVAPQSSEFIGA
UniProt P00533, with tags, fused parts or gaps DEL746-750/T790M/C797S limits assumed: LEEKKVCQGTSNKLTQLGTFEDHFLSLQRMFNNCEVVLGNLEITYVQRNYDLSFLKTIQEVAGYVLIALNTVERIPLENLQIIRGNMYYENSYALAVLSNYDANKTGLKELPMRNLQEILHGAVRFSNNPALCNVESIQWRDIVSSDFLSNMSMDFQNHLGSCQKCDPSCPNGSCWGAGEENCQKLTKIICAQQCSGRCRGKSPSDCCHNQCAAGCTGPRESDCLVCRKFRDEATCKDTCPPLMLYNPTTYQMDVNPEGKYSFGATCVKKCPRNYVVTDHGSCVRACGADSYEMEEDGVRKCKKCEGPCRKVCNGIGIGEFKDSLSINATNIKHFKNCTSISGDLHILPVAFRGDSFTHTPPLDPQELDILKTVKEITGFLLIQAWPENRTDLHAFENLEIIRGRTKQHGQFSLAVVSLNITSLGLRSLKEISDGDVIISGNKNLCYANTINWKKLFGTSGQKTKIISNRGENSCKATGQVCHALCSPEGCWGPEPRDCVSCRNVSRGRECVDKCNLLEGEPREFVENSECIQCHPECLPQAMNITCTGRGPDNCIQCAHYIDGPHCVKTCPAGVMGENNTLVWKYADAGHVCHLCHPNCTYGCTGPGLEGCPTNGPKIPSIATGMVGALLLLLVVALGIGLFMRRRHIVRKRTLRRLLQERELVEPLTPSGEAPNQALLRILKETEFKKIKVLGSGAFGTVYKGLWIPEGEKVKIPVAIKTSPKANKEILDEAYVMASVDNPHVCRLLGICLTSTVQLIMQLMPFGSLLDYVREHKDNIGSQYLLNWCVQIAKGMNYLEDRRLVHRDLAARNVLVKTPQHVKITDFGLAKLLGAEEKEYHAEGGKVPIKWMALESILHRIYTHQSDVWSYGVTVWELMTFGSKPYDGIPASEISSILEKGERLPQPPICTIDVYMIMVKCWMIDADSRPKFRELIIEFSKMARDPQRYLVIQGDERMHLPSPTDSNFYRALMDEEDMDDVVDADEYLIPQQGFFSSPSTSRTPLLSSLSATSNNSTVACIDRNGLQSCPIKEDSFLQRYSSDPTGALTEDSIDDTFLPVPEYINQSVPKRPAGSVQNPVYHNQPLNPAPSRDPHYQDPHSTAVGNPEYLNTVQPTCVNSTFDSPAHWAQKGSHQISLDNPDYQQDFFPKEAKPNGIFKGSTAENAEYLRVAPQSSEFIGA

Legend:
[1] = biological target: EGFR D19TMCS (del19/T790M/C797S) (Homo sapiens, UniProt P00533, C797S/DEL746-750/T790M); experiment: Biochemical EGFR kinase assay (Lance Ultra TR-FRET), triple mutant del19/T790M/C797S
Protocol: (§1) Biochemical EGFR kinase assays were conducted using Lance Ultra time-resolved fluorescence resonance energy transfer (TR-FRET) technology from Perkin-Elmer. Compounds of the invention were initially diluted to 20 mM in 100% DMSO for storage and made into kinase buffer solution to create a compound concentration ranging from 0.003 μM and 10 μM.
(§2) Briefly, each EGFR enzyme wildtype (EGFR WT), double mutant [del19/C797S (EGFR D19CS) and L858R/C797S (EGFR LRCS)], triple mutant [del19/T790M/C797S (EGFR D19TMCS) and L858R/T790M/C797S (EGFR LRTMCS)], serial diluted EGFR inhibitors, substrate of ULight-poly-GT peptide (PerkinElmer; TRF0100-M) and different concentrations of ATP (Km and 100 μM final assay concentration) were mixed in kinase assay buffer (50 mM HEPES pH 7.4, 10 mM MgCl2, 1 mM EGTA, 2 mM DTT and 0.01% Tween-20) and were added to a 384-well plate (Optiplate™ 384, white, PerkinElmer; 6007290).
(§3) Each kinase reactions were incubated at room temperature for 1 hour and then stopped by the addition of 4 μL of stop solution (10 mM EDTA). The specific Europium-labeled-anti-phosphopeptide antibody (PerkinElmer, AD0069) diluted in LANCE detection buffer was then added to a final concentration of 2 nM. After 60 minutes incubation at room temperature the LANCE signal was measured on an EnVision Multilabel Reader (Perkin-Elmer). Excitation wavelength was set at 320 nm and emission monitored at 615 nm (donor) and 665 nm (acceptor). The IC50 values were determined using GraphPad prism software (GraphPad Software, Inc., San Diego, CA, USA).

[2] = biological target: EGFR LRTMCS (L858R/T790M/C797S) (Homo sapiens, UniProt P00533, C797S/L858R/T790M); experiment: Biochemical EGFR kinase assay (Lance Ultra TR-FRET), triple mutant L858R/T790M/C797S
Protocol: as §1, §2, §3

EGFR D19CS (del19/C797S) = EGFR D19CS (del19/C797S) (Homo sapiens, UniProt P00533, C797S/DEL746-750); experiment: Biochemical EGFR kinase assay (Lance Ultra TR-FRET), double mutant del19/C797S
Protocol: as §1, §2, §3

EGFR LRCS (L858R/C797S) = EGFR LRCS (L858R/C797S) (Homo sapiens, UniProt P00533, C797S/L858R); experiment: Biochemical EGFR kinase assay (Lance Ultra TR-FRET), double mutant L858R/C797S
Protocol: as §1, §2, §3

EGFR WT = EGFR WT (Homo sapiens, UniProt P00533); experiment: Biochemical EGFR kinase assay (Lance Ultra TR-FRET), wildtype
Protocol: as §1, §2, §3

[3] = read-out: EGFR D19TMCS IC50, ATP 1 mM
[4] = read-out: EGFR D19TMCS IC50, ATP Km
[5] = read-out: EGFR LRTMCS IC50, ATP 1 mM
[6] = read-out: EGFR LRTMCS IC50, ATP Km
[7] = read-out: EGFR D19CS IC50, ATP 1 mM
[8] = read-out: EGFR D19CS IC50, ATP Km
[9] = read-out: EGFR LRCS IC50, ATP 1 mM
[10] = read-out: EGFR LRCS IC50, ATP Km
[11] = read-out: EGFR WT IC50, ATP 1 mM
[12] = read-out: IC50, EGFR D19TMCS, Km, ATP at Km, EGFR del19/T790M/C797S
[13] = read-out: IC50, EGFR LRTMCS, 1 mM, ATP 1 mM, EGFR L858R/T790M/C797S
[14] = read-out: IC50, EGFR LRTMCS, Km, ATP at Km, EGFR L858R/T790M/C797S
[15] = read-out: IC50, EGFR-D19CS, 1 mM, ATP 1 mM, EGFR del19/C797S
[16] = read-out: IC50, EGFR-D19CS, Km, ATP at Km, EGFR del19/C797S
[17] = read-out: IC50, EGFR-LRCS, 1 mM, ATP 1 mM, EGFR L858R/C797S
[18] = read-out: IC50, EGFR-LRCS, Km, ATP at Km, EGFR L858R/C797S
[19] = read-out: IC50, EGFR WT, 1 mM, ATP 1 mM, EGFR wildtype
[20] = read-out: IC50, EGFR WT, Km, ATP at Km, EGFR wildtype

Compound	IC50 [1, 3]	IC50 [1, 4]	IC50 [2, 5]	IC50 [2, 6]	IC50 (EGFR D19CS (del19/C797S); [7])	IC50 (EGFR D19CS (del19/C797S); [8])	IC50 (EGFR LRCS (L858R/C797S); [9])	IC50 (EGFR LRCS (L858R/C797S); [10])	IC50 (EGFR WT; [11])	IC50 (EGFR WT; read-out: EGFR WT IC50, ATP Km)	IC50 [1, 12]	IC50 [2, 13]	IC50 [2, 14]	IC50 (EGFR D19CS (del19/C797S); [15])	IC50 (EGFR D19CS (del19/C797S); [16])	IC50 (EGFR LRCS (L858R/C797S); [17])	IC50 (EGFR LRCS (L858R/C797S); [18])	IC50 (EGFR WT; [19])	IC50 (EGFR WT; [20])
C[C@H]1CCOc2c(cnn2C)-c2nccc(n2)Nc2cc(c(-c3ncc(CN4CCCCC4)cc3F)cn2)N1	< 10 nM	< 10 nM	< 10 nM	< 10 nM	< 10 nM	< 10 nM	10 to 100 nM	< 10 nM	> 1000 nM	< 10 nM									
Cc1nn(C)c2c1-c1nccc(n1)Nc1cc(c(-c3ncc(CN4CCC(F)(F)CC4)cc3F)cn1)N[C@@H](C)CCO2											10 to 100 nM	10 to 100 nM	< 10 nM	10 to 100 nM	10 to 100 nM	100 to 1000 nM	< 10 nM	> 1000 nM	10 to 100 nM
Cc1nn(C)c2c1-c1nccc(n1)Nc1cc(c(-c3ncc(C(C)(C)O)cn3)cn1)NCC[C@@H](C)O2	< 10 nM	< 10 nM	< 10 nM	< 10 nM	< 10 nM	< 10 nM	10 to 100 nM	< 10 nM	> 1000 nM	10 to 100 nM									
Cc1nn(C)c2c1-c1nccc(n1)Nc1cc(c(-c3cc(C(C)(C)O)ccn3)cn1)NCC[C@H](C)O2											< 10 nM	10 to 100 nM	< 10 nM	10 to 100 nM	< 10 nM	10 to 100 nM	< 10 nM	> 1000 nM	10 to 100 nM
Cc1nn(C)c2c1-c1nccc(n1)Nc1cc(c(-c3ccc(N4CCC(N(C)C)CC4)cn3)cn1)NCC[C@H](C)O2	< 10 nM	< 10 nM	< 10 nM	< 10 nM	< 10 nM	< 10 nM	< 10 nM	< 10 nM	100 to 1000 nM	10 to 100 nM									
Cc1nn(C)c2c1-c1nccc(n1)Nc1cc(c(-c3ncc(CN4CC5(C4)CS(=O)(=O)C5)cc3F)cn1)NCC[C@H](C)O2											10 to 100 nM	< 10 nM	< 10 nM	10 to 100 nM	< 10 nM	< 10 nM	< 10 nM	> 1000 nM	< 10 nM
Cn1nc(-c2cnc3cc2NCC(C)(C)COc2c(cnn2C)-c2nccc(n2)N3)cc1C(F)(F)F	< 10 nM	< 10 nM	< 10 nM	< 10 nM	100 to 1000 nM	10 to 100 nM	> 1000 nM	10 to 100 nM	> 1000 nM	10 to 100 nM									
Cc1nn(C)c2c1-c1nccc(n1)Nc1cc(c(-c3ncc(CN4CCC[C@H](O)C4)cc3F)cn1)N[C@@H](C)CCO2											< 10 nM	< 10 nM	< 10 nM	10 to 100 nM	< 10 nM	100 to 1000 nM	< 10 nM	> 1000 nM	10 to 100 nM
C[C@H]1CCOc2c(cnn2C)-c2nccc(n2)Nc2cc(c(-c3ncc(CN4CC5(COC5)C4)cc3F)cn2)N1	< 10 nM	< 10 nM	< 10 nM	< 10 nM	< 10 nM	< 10 nM	10 to 100 nM	< 10 nM	> 1000 nM	< 10 nM									
C[C@H]1CCOc2c(cnn2C)-c2nccc(n2)Nc2cc(c(-c3ncc(CN4CC(CC(C)(F)F)C4)cc3F)cn2)N1	< 10 nM	< 10 nM	< 10 nM	< 10 nM	< 10 nM	< 10 nM	10 to 100 nM	< 10 nM	> 1000 nM	< 10 nM									
C[C@H]1CCNc2cc(ncc2-c2ccc(C(C)(O)C(F)(F)F)cn2)Nc2ccnc(n2)-c2cnn(C)c2O1 (stereo partly drawn)	< 10 nM	< 10 nM	< 10 nM	< 10 nM	10 to 100 nM	< 10 nM	10 to 100 nM	< 10 nM	> 1000 nM	10 to 100 nM									
Cc1nn(C)c2c1-c1nccc(n1)Nc1cc(c(-c3ncc(CN4CCC(C)(O)CC4)cc3F)cn1)NCC[C@H](C)O2											< 10 nM	< 10 nM	< 10 nM	10 to 100 nM	< 10 nM	10 to 100 nM	< 10 nM	> 1000 nM	10 to 100 nM
Cc1nn(C)c2c1-c1nccc(n1)Nc1cc(c(-c3ncc(CN4CC5CS(=O)(=O)CC5C4)cc3F)cn1)N[C@@H](C)CCO2 (stereo partly drawn)											< 10 nM	< 10 nM	< 10 nM	10 to 100 nM	< 10 nM	10 to 100 nM	< 10 nM	> 1000 nM	< 10 nM

More lines, now with the values ahead:

IC50 [1, 3]	IC50 [1, 4]	IC50 [2, 5]	IC50 [2, 6]	IC50 (EGFR D19CS (del19/C797S); [7])	IC50 (EGFR D19CS (del19/C797S); [8])	IC50 (EGFR LRCS (L858R/C797S); [9])	IC50 (EGFR LRCS (L858R/C797S); [10])	IC50 (EGFR WT; [11])	IC50 (EGFR WT; read-out: EGFR WT IC50, ATP Km)	IC50 [1, 12]	IC50 [2, 13]	IC50 [2, 14]	IC50 (EGFR D19CS (del19/C797S); [15])	IC50 (EGFR D19CS (del19/C797S); [16])	IC50 (EGFR LRCS (L858R/C797S); [17])	IC50 (EGFR LRCS (L858R/C797S); [18])	IC50 (EGFR WT; [19])	IC50 (EGFR WT; [20])	Compound
10 to 100 nM	< 10 nM	10 to 100 nM	< 10 nM	> 1000 nM	> 1000 nM	> 1000 nM	100 to 1000 nM	> 1000 nM	> 1000 nM										C[C@@H]1CCNc2cc(ncc2-c2ccn(C(F)F)n2)Nc2ccnc(n2)-c2cnn(C)c2OC1
< 10 nM	< 10 nM	10 to 100 nM	< 10 nM	> 1000 nM	10 to 100 nM	> 1000 nM	10 to 100 nM	> 1000 nM	10 to 100 nM										C[C@H]1CCOc2c(cnn2C)-c2nccc(n2)Nc2cc(c(-c3nccc(OC(F)F)c3F)cn2)N1
< 10 nM	< 10 nM	< 10 nM	< 10 nM	10 to 100 nM	10 to 100 nM	100 to 1000 nM	10 to 100 nM	> 1000 nM	10 to 100 nM										CO[C@H]1C[C@H](Nc2ccnc(-c3cnc4cc3N[C@@H](C)CCOc3c(cnn3C)-c3nccc(n3)N4)c2)C1
10 to 100 nM	< 10 nM	100 to 1000 nM	< 10 nM	> 1000 nM	100 to 1000 nM	> 1000 nM	100 to 1000 nM	> 1000 nM	100 to 1000 nM										Cn1ncc2c1OC[C@@H]1CC[C@@H](C1)Nc1cc(ncc1-c1ccn(C(F)F)n1)Nc1ccnc-2n1
< 10 nM	< 10 nM	< 10 nM	< 10 nM	< 10 nM	< 10 nM	10 to 100 nM	< 10 nM	> 1000 nM	< 10 nM										C[C@@H]1CCNc2cc(ncc2-c2cc(C(F)(F)F)n(C)n2)Nc2ccnc(n2)-c2cnn(C)c2O1
< 10 nM	< 10 nM	10 to 100 nM	< 10 nM	10 to 100 nM	10 to 100 nM	100 to 1000 nM	10 to 100 nM	> 1000 nM	< 10 nM										Cn1ncc2c1OCC1(CCCC1)CNc1cc(ncc1-c1ccn(C(F)F)n1)Nc1ccnc-2n1
< 10 nM	< 10 nM	< 10 nM	< 10 nM	< 10 nM	< 10 nM	10 to 100 nM	< 10 nM	> 1000 nM	< 10 nM										C[C@H]1CCOc2c(cnn2C)-c2nccc(n2)Nc2cc(c(-c3ncc(CN4CCC(F)CC4)cc3F)cn2)N1
< 10 nM	< 10 nM	< 10 nM	< 10 nM	> 1000 nM	100 to 1000 nM	> 1000 nM	100 to 1000 nM	> 1000 nM	> 1000 nM										Cn1ncc2c1OCCCNc1cc(ncc1-c1ccn(C(F)F)n1)Nc1ccnc-2n1

Where two headings read alike, the source gives them in different places.
